{
  "sequences": {"note": "The chains behind the UniProt entries cited, without tags or fusion partners. Where a name states a change or a piece, a line headed by the entry shows the natural chain unless it says otherwise. Residues count along the entry.", "UniProt P35396, 210-438 limits assumed": "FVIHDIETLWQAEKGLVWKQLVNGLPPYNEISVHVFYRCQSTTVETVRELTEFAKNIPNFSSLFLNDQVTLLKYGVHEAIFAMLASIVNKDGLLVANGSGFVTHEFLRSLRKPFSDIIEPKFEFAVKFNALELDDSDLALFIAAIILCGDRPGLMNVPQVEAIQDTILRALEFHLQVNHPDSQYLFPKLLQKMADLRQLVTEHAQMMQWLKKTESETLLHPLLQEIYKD"},
  "source": "paper PMC1940322",
  "about": "“The Effect of PPARα, PPARδ, PPARγ, and PPARpan Agonists on Body Weight, Body Mass, and Serum Lipid Profiles in Diet-Induced Obese AKR/J Mice” (PPAR Research, 2007)",
  "target": "murine PPARδ (Mus musculus, UniProt P35396)",
  "assay": "PPAR-GAL4 transient transfection transactivation assay (SPAP reporter) in CV-1 cells, PPARδ",
  "type": "cell-based",
  "data": [
    {"smiles": "CCCCCCCN(CCc1ccc(SC(C)(C)C(=O)O)cc1)C(=O)Nc1ccc(F)cc1F", "note": "[GW9578]", "values": [
      {"measurement": "mPPARδ %Max", "setting": "maximal activation vs reference comparator", "result": 76, "unit": "%"},
      {"measurement": "EC50", "setting": "read-out: mPPARδ, murine receptor activation EC50, CV-1 cells, GAL4 chimera", "result": 2340, "unit": "nM"}
    ]}
  ]
}
